Experimental data reported in patent US20210300900A1, “OGA INHIBITOR COMPOUNDS” (Janssen Pharmaceutica NV, priority 2018, published 2021).

Chains of the proteins cited; added tags and fusions are not shown.
UniProt O60502, whole entry: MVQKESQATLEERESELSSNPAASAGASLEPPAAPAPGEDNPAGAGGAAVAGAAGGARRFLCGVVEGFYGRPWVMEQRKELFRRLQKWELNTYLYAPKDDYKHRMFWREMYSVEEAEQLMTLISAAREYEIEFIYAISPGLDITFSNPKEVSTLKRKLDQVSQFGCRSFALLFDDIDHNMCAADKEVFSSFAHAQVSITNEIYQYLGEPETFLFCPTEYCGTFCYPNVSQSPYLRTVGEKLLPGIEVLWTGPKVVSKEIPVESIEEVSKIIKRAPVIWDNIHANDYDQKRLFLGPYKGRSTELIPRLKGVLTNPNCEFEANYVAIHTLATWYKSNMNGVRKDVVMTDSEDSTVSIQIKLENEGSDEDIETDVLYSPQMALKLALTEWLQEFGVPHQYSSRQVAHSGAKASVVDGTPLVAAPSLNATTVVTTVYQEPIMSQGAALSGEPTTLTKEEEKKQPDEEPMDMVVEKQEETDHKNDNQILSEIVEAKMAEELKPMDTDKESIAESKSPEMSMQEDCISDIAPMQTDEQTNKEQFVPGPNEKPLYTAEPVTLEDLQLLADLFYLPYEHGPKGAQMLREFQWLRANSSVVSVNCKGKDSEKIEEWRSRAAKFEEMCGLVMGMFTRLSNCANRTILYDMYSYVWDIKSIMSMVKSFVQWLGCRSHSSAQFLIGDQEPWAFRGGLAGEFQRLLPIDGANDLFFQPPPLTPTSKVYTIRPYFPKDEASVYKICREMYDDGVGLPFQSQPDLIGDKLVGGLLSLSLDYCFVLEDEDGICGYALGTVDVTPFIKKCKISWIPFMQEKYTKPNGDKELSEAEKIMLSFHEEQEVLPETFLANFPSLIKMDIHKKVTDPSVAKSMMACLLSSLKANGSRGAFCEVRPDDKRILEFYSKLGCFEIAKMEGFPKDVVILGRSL

Target: recombinant human Meningioma Expressed Antigen 5 (MGEA5), also referred to as O-GcNAcase (OGA) (Homo sapiens, UniProt O60502)
Assay: OGA biochemical assay (inhibition of FM-GlcNAc hydrolysis, fluorescence)
Conditions: FM-GlcNAc substrate
Description: The assay is based on the inhibition of the hydrolysis of fluorescein mono-β-D-N-Acetyl-Glucosamine (FM-GlcNAc) (Mariappa et al. 2015, Biochem J 470:255) by the recombinant human Meningioma Expressed Antigen 5 (MGEA5), also referred to as O-GcNAcase (OGA). The hydrolysis FM-GlcNAc (Marker Gene technologies, cat #M1485) results in the formation of B-D-N-glucosamineacetate and fluorescein. The fluorescence of the latter can be measured at excitation wavelength 485 nm and emission wavelength 538 nm. An increase in enzyme activity results in an increase in fluorescence signal. Full length OGA enzyme was purchased at OnGene (cat #TP322411). The enzyme was stored in 25 mM Tris.HCl, pH 7.3, 100 mM glycine, 10% glycerol at −20° C. Thiamet G and GlcNAcStatin were tested as reference compounds (Yuzwa et al. 2008 Nature Chemical Biology 4:483; Yuzwa et al. 2012 Nature Chemical Biology 8:393). The assay was performed in 200 mM Citrate/phosphate buffer supplemented with 0.005% Tween-20. […]
50 nl of a compound dissolved in DMSO was dispensed on Black Proxiplate TM 384 Plus Assay plates (Perkin Elmer, #6008269) and 3 μl fl-OGA enzyme mix added subsequently. […] Fluorescence was quantified in the Thermo Scientific Fluoroskan Ascent or the PerkinElmer EnVision with excitation wavelength 485 nm and emission wavelength 538 nm. […]

Structure (SMILES): COc1cccc(C(C)N2CCC(Cc3ccc(F)nc3)C2)n1 (single isomer, unassigned)
- Enzymatic hOGA; pIC50: <5
